1 molecule from article PMC12291850, “Morin Flavonoid Interaction with Albumin and Its Nanoparticle Conjugation: An Efficient Antioxidant Vehicle for Nutraceuticals” (Antioxidants, 2025) can be followed below.

Chains of the proteins cited; added tags and fusions are not shown. Residues count along the entry.
UniProt P02769, 25-607: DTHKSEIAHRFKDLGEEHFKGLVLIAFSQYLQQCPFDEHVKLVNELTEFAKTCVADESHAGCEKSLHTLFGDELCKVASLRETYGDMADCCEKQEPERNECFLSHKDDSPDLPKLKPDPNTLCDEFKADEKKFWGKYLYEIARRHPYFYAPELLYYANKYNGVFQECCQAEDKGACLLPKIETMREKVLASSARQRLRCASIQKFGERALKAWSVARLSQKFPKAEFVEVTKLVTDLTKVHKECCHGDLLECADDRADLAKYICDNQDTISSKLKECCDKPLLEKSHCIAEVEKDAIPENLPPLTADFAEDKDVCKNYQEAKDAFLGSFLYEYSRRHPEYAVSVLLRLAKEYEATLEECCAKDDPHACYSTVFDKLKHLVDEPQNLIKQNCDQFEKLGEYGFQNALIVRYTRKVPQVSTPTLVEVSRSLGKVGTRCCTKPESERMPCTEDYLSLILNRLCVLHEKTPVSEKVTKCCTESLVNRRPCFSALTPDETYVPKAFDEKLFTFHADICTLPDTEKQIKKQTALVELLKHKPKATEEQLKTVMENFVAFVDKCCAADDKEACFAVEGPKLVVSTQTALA

SMILES strings stand for the structures.

The assay concerns the target T1, bovine serum albumin (BSA) (Bos taurus, UniProt P02769).
T1 construct: bovine serum albumin (BSA, fraction V, ≥98%) were obtained from Merck; purchased Merck (Darmstadt, Germany)
Kind of assay: Fluorescence quenching of BSA by flavonoids (Stern–Volmer, binding equation, van't Hoff). As to conditions: 25 °C. The procedure:
Fluorescence quenching spectroscopy was employed to investigate the interaction between bovine serum albumin (BSA) and selected flavonoids, including morin. All measurements were performed using a spectrofluorometer under controlled temperature conditions (25 °C).
To quantify the quenching effect upon encapsulation, the Stern–Volmer equation was applied (Equation (1)):F0/F = 1 + Ksv [Q](1) where F0 and F are the fluorescence intensities of BSA in the absence and presence of quencher (flavonoid), respectively, Ksv is the Stern–Volmer quenching constant, and [Q] is flavonoid concentration.
The binding constant (Ka) and the number of binding sites (n) were calculated using the logarithmic form of the binding equation (Equation (2)):log[(F0 − F)/F] = log Ka + n log[Q](2)
Thermodynamic parameters—Gibbs free energy change (ΔG°) (Equation (3)), enthalpy change (ΔH°), and entropy change (ΔS°)—were determined from the temperature dependence of the binding constant using the van’t Hoff equation (Equation (4)):ΔG° = ΔH° − TΔS°(3) ln Ka = −ΔH°/RT + ΔS°/R(4)

In the case of `O=c1c(O)c(-c2ccc(O)c(O)c2)oc2cc(O)cc(O)c12` [quercetin], the “binding constant (Ka)” value stood at 173000 L/mol.
